Data on 3 substances can be found in patent US7851505B2, “Thiotungstate analogues and uses thereof” (priority 2003, dated 2010).

A short description of the series: Moisture stability of tetrathiotungstate salts. It counts as physicochemical. To be noted: room temperature, 95% relative humidity, two weeks; purity by absorbance; * = partially soluble; ‡ = average of 2 data points.

For “Tetrathiotungstate, butane-1,4-bis(trimethylammonium)”, the “% degradation” value is reported as 5.7* %.

With “Tetrathiotungstate, propane-1,3-bis(trimethylammonium)”, the “% degradation” value is listed as 23.8* %.

Regarding “Tetrathiotungstate, pentane-1,5-bis(trimethylammonium)”, the “% degradation” value is 19.8* %.
